IC50 and IC90 data for one substance are collected here from patent US20130231296A1, “NEW DRUG COMBINATIONS FOR THE TREATMENT OF MALARIA” (Bioagency AG, priority 2010, published 2013).

One test concerns P. falciparum 3D7. Put plainly: in vitro inhibition of parasite growth by [3H] hypoxanthine incorporation, drugs alone. Format: cell-based, Plasmodium falciparum. The note with it: for IC50: P. falciparum 3D7 (chloroquine sensitive). As for the experimental part: (§1) 1. Initial determination of the in vitro efficacy profile (IC50/IC90) of FOS and PIP against a drug sensitive and a drug resistant strain of Plasmodium falciparum. P. falciparum 3D7 is chloroquine sensitive, P. falciparum K1 is insensitive to chloroquine
(§2) in vitro inhibition of parasite growth was assessed by the incorporation of [3H] hypoxanthine, including chloroquine (CQ) and artesunate (ASN) as positive control drugs.
(§3) The first set of in vitro experiments established the IC50 values of the drugs alone, followed by Fixed Ratio Combination assays of FOS+PIP with FOS+CND as a control combination. Chloroquine and artesunate were included in all assays to ensure the validity of the test.
(§4) The first sets of experiments were carried out to establish the IC50 and IC90 values of the drugs on their own. The drugs were evaluated in 3 separate experiments (see Tables 1 & 2)

Another test relates to P. falciparum K1. The description is as above. Format: cell-based, Plasmodium falciparum. The following applies: for IC50: P. falciparum K1 (insensitive to chloroquine). On the procedure:
as §1, §2, §3, §4

Consider Clindamycin hydrochloride [CDN], for which the IC50 was less than 0.21 µg/mL in the test on P. falciparum 3D7 (Experiment 1); less than 0.21 µg/mL with P. falciparum 3D7 (Experiment 2); 0.26 µg/mL with P. falciparum 3D7 (Experiment 3); 46.19 µg/mL in the test on P. falciparum K1 (Experiment 1); 45.15 µg/mL in the test with P. falciparum K1 (Experiment 2); 0.53 µg/mL with P. falciparum K1 (Experiment 3). For the same substance, the IC90 in the test on P. falciparum 3D7 (P. falciparum 3D7, Experiment 1) is on record as 0.27; with P. falciparum 3D7 (P. falciparum 3D7, Experiment 2), 34.08; with P. falciparum 3D7 (P. falciparum 3D7, Experiment 3), more than 10; in the test with P. falciparum K1 (P. falciparum K1, Experiment 1), more than 50; with P. falciparum K1 (P. falciparum K1, Experiment 2), more than 50; in the test with P. falciparum K1 (P. falciparum K1, Experiment 3) it was more than 50.
